# Test system: histamine
# Experiment: antagonistic activity against histamine on ileum of guinea pigs
smiles,measurement,setting,value
"Cn1c(=O)c2[nH]cnc2n(C)c1=O [theophylline, reference compound]",inhibition against histamine,50 μg/ml. antagonistic dose,18%
same,maximum inhibition (histamine),in a dose of 200 μg/ml.,37%
